Laboratory results published in patent publication US9156810B2, “Treatment of inflammatory bowel disease” (ALLERGAN, INC., priority 2003, dated 2015).

Sequences of proteins named here, by UniProt entry; tags and fusion partners are left off. A change or cut given only in a name is not applied to a line headed by its entry.
UniProt P35408: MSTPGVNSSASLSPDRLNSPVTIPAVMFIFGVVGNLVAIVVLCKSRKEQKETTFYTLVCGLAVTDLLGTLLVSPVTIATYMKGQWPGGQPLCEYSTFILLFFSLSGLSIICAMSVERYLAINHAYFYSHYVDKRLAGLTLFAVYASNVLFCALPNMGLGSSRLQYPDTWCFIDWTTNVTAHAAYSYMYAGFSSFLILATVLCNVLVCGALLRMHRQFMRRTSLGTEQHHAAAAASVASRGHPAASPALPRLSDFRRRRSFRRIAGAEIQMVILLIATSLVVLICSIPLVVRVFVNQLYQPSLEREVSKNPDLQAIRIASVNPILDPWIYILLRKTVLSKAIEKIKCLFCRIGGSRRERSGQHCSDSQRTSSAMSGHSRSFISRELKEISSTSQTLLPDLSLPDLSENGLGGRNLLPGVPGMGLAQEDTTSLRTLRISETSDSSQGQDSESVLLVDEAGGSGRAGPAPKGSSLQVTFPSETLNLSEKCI

How the values were obtained:
[1] = biological target: T1, hEP4 (Homo sapiens (Human), UniProt P35408); assay: Radioligand binding ([3H]PGE2), HEK-293 cell membranes expressing EP4 receptor; settings: top number in Table 2
Description: HEK-293 cells stably expressing the human or feline FP receptor, or EP1, EP2, EP3, or EP4 receptors were washed with TME buffer, scraped from the bottom of the flasks, and homogenized for 30 sec using a Brinkman PT 10/35 polytron. TME buffer was added to achieve a final 40 ml volume in the centrifuge tubes (the composition of TME is 100 mM TRIS base, 20 mM MgCl2, […]; 10N HCl is added to achieve a pH of 7.4).
The cell homogenate was centrifuged at 19000 r.p.m. for 20 min at 4° C. using a Beckman Ti-60 rotor. The resultant pellet was resuspended in TME buffer to give a final 1 mg/ml protein concentration, as determined by Biorad assay. Radioligand binding competition assays vs. [^3H-]17-phenyl PGF2α, (5 nM) were performed in a 100 μl volume for 60 min. Binding reactions were started by adding plasma membrane fraction. The reaction was terminated by the addition of 4 ml ice-cold TRIS-HCl buffer and rapid filtration through glass fiber GF/B filters using a Brandel cell harvester. The filters were washed 3 times with ice-cold buffer and oven dried for one hour. Non-specific binding was determined with 10 uM unlabeled 17-phenyl PGF2α.
[^3H-] PGE2 (5 nM; specific activity 180 Ci mmol) was used as the radioligand for EP receptors. […] Non-specific binding determined with 10^−5M of unlabeled PGE2.

[2] = biological target: T1, hEP4; assay: FLIPR calcium signal, HEK-293(EBNA) cells expressing hEP4/Gqs5; type: cell-based; settings: bottom number in Table 2
Description: HEK-293(EBNA) cells, stably expressing one type or subtype of recombinant human prostaglandin receptors (prostaglandin receptors expressed: hDP/Gqs5; hEP1; hEP2/Gqs5; hEP3A/Gqi5; hEP4/Gqs5; hFP; hIP; hTP), were cultured in 100 mm culture dishes in high-glucose DMEM medium containing 10% fetal bovine serum, 2 mM 1-glutamine, 250 μg/ml geneticin (G418) and 200 μg/ml hygromycin B as selection markers, and 100 units/ml penicillin G, 100 μg/m streptomycin and 0.25 μg/m amphotericin B.
Cells were seeded at a density of 5×10^4 cells per well in Biocoat® Poly-D-lysine-coated black-wall, clear-bottom 96-well plates (Becton-Dickinson) and allowed to attach overnight in an incubator at 37° C. Cells were then washed two times with HBSS-HEPES buffer (Hanks Balanced Salt Solution without bicarbonate and phenol red, 20 mM HEPES, pH 7.4) using a Denley Cellwash plate washer (Labsystems). […]
Cells were excited with an Argon laser at 488 nm, and emission was measured through a 510-570 nm bandwidth emission filter (FLIPR™, Molecular Devices, Sunnyvale, Calif.). […] The peak increase in fluorescence intensity was recorded for each well. […] The peak fluorescence change in each drug-containing well was then expressed relative to the controls. […]

COC(=O)CCCC#CC[C@H]1C(=O)C(C)(C)[C@@H](O)[C@@H]1/C=C/C(O)CCc1sc2ccccc2c1Cl (single isomer, unassigned) [Compound 34]
hEP4 radioligand binding IC50 [1]: > 10 µM
hEP4 functional EC50 [2]: >10K
